The record followed here is publication PMC6374102 (Science Advances, 2019).

The nature of this series: In vitro release of LENK from NPs / bioconjugate stability in serum. The class given is in vitro ADME. Particulars: 900 μl male SWISS mouse serum, 37°C + 300 μl NPs (2 mg/ml); RP-HPLC, UV 257 nm.

For `CC(C)=CCC/C(C)=C/CC/C(C)=C/CC/C=C(\C)CC/C=C(\C)CCCOC(=O)COCC(=O)NC(Cc1ccc(O)cc1)C(=O)NCC(=O)NCC(=O)NC(Cc1ccccc1)C(=O)NC(CC(C)C)C(=O)O` (stereo not shown) [LENK-SQ-Dig, Leu-enkephalin-squalene with diglycolic linker], the “Time over which the peptide-linker fragment could still be detected” value is “over 10 hours”.
